Key:
[1] = test system: lung cancer cell line A549; details: A549, 100 μM or 500 μM, 72 hours, compared to control group (FIG. 1)
[2] = test system: lung cancer cell line H1650; details: H1650, 100 μM or 500 μM, 72 hours, compared to control group (FIG. 2)

C[C@H](N)C(=O)N[C@@H](CCC(N)=O)C(=O)N[C@H](C(=O)N[C@@H](C)C(=O)N[C@H](C(=O)NCC(=O)N[C@@H](CCCCN)C(=O)N[C@H](C(=O)O)[C@@H](C)O)[C@@H](C)O)[C@@H](C)O [AQTATGKT]
cytotoxicity (proliferation suppressive effect, MTT assay) [1]: significant cytotoxicity | cytotoxicity (proliferation suppressive effect, MTT assay) [2]: significant cytotoxicity

CSCC[C@H](NC(=O)[C@@H](NC(=O)[C@H](CCC(N)=O)NC(=O)[C@H](C)N)[C@@H](C)O)C(=O)N[C@H](C(=O)NCC(=O)N[C@@H](CCCCN)C(=O)N[C@H](C(=O)O)[C@@H](C)O)[C@@H](C)O [AQTMTGKT]
cytotoxicity (proliferation suppressive effect, MTT assay) [1]: significant cytotoxicity | cytotoxicity (proliferation suppressive effect, MTT assay) [2]: significant cytotoxicity

C[C@H](N)C(=O)N[C@@H](CCC(N)=O)C(=O)N[C@H](C(=O)N1CCC[C@H]1C(=O)N[C@H](C(=O)NCC(=O)N[C@@H](CCCCN)C(=O)N[C@H](C(=O)O)[C@@H](C)O)[C@@H](C)O)[C@@H](C)O [AQTPTGKT]
cytotoxicity (proliferation suppressive effect, MTT assay) [1]: significant cytotoxicity | cytotoxicity (proliferation suppressive effect, MTT assay) [2]: significant cytotoxicity

CC(C)[C@H](NC(=O)[C@@H](NC(=O)[C@H](CCC(N)=O)NC(=O)[C@H](C)N)[C@@H](C)O)C(=O)N[C@H](C(=O)NCC(=O)N[C@@H](CCCCN)C(=O)N[C@H](C(=O)O)[C@@H](C)O)[C@@H](C)O [AQTVTGKT]
cytotoxicity (proliferation suppressive effect, MTT assay) [1]: significant cytotoxicity | cytotoxicity (proliferation suppressive effect, MTT assay) [2]: significant cytotoxicity

Reference: US20220204560A1, “NOVEL OLIGOPEPTIDE, AND PHARMACEUTICAL COMPOSITION FOR PREVENTING OR TREATING CANCER, COMPRISING THE SAME AS AN ACTIVE INGREDIENT” (L-BASE CO., LTD., priority 2019, published 2022)
